Measured values as given in patent publication US20090226952A1, “SCREENING METHOD FOR COMPOUNDS WITH A[…]” (Isis Innovation Limited, priority 2005, published 2009).

System: in vitro hippocampal slices (Schaffer Collaterals, excitatory post-synaptic potentials)
Assay: Electrophysiological field potential (EPSP) recordings in paired-pulse stimulated hippocampal slices
Format: cell-based, rat
Settings: morphine 10-100 μM, gabapentin 100-150 μM, thiopental 80-150 μM, propofol 10-50 μM
Protocol: In the study, collective synchronised neuronal activity, i.e. working neuronal assemblies^3, were recorded while monitoring in parallel the underlying synaptic electrical activity (FIG. 1a). Accordingly, the use of the voltage sensitive dye, Di-4-ANEPPS, was combined with standard electrophysiological field potential recordings to measure the excitatory post-synaptic potentials (EPSPs). Under control conditions in physiological saline, electrical stimuli in a paired-pulse paradigm^18 were applied to the Schaffer Collaterals of in vitro hippocampal slices.
Following terminal anaesthesia using halothane, 400 μm transverse hippocampal slices from 2 week Wistar rats were obtained and left to rest for one hour in a high humidity chamber with oxygenated artificial cerebrospinal fluid (ACSF) (in mM: 124 NaCl, 22 NaHCO3, 10 glucose, 5 KCl, 2 CaCl2, 1.25 MgSO4, 1.25 NaH2PO4) before being submersed in dye solution (4% dye stock solution (in mM: 0.2 mM Di-4-ANEPPS (Molecular Probes, Oregon, USA) in 2.7% ethanol, 0.13% Cremaphor EL), 48% fetal bovine serum and 24% ACSF and 24% ACSF cellulose) for 25 minutes followed by a further one hour rest in the humidity chamber with oxygenated ACSF.
Electrical stimulation (paired pulse 8-10V, 60 ms interval, 0.1 ms duration) was generated by an isolated stimulator (Digitimer Ltd, UK) via a bipolar electrode (FHC, Maine, USA) and positioned just above the CA3 region. In this way, paired pulses were applied along the Shaffer Collaterals so as to elicit a spreading depolarising wave that formed from the point of stimulation and moved along the pathway towards the CA1 region. A halogen lamp provided the excitatory wavelengths for the dye (through a λ=530±10 nm filter) while the emission was captured on a 2 mm×3 mm CCD sensor (MiCAM01, BrainVision, Tokyo, Japan) through an absorption filter (λ=590 nm). Optical recordings were acquired at a rate of 0.7 ms frame^−1 for 682 frames. 16 optical recordings were averaged for each experimental condition to reduce the effects of dye bleaching and increase the signal-to-noise ratio. […]

Structure (SMILES): CN1CC[C@]23c4c5ccc(O)c4O[C@H]2[C@@H](O)C=C[C@H]3[C@H]1C5 [morphine]
- paired-pulse facilitation in EPSP recordings, treatment vs control: no significant enhancement of facilitation
- EPSP peak 1 value vs control (paired t-test n=6): significant increases
- EPSP peak 2 value vs control (paired t-test n=6): significant increases
